Assay results as given in patent US20010044151A1, “Ligands for modulating the expression of exogenous genes via an ecdysone receptor complex” (priority 1998, published 2001).

Sequences of proteins named here, by UniProt entry; tags and fusion partners are left off. Residues count along the entry.
UniProt Q6RVD3, 1-541: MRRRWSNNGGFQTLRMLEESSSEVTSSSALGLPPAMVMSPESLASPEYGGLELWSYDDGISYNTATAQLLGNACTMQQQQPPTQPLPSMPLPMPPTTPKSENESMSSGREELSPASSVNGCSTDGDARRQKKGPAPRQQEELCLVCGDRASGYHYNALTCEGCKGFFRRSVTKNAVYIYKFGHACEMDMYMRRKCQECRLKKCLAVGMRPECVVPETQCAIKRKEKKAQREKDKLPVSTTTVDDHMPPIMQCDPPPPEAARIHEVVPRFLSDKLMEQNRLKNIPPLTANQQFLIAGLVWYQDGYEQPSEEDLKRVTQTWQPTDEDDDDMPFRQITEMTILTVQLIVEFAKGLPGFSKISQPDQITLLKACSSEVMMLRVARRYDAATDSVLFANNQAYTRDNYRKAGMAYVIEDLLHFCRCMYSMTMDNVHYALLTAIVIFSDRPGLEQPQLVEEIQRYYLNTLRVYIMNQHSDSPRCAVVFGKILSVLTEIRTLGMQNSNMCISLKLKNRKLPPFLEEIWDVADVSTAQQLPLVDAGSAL
UniProt Q6IVK1, 1-415 partner: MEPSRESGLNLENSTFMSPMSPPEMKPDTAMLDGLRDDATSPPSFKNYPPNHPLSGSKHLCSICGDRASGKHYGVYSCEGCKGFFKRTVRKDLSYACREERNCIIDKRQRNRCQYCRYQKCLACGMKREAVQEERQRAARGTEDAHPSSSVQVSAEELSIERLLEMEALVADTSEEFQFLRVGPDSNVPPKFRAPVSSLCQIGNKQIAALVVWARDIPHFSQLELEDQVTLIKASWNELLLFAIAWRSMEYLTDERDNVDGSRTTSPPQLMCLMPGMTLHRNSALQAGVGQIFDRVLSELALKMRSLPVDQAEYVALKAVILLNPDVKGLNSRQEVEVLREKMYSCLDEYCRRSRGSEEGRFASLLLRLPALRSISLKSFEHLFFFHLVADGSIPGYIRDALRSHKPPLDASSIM

Molecular target: ecdysteroid receptor complex in Plodia interpunctella (IAL-PID2) nuclear extract (Plodia interpunctella, UniProt Q6RVD3)
Assay: Competitive 3H-ponasterone A binding assay, Plodia nuclear ecdysone receptor extract
Conditions: 3H-ponasterone A displacement
Method: The cell line IAL-PID2, derived from imaginal wing discs of the lepidopteran Plodia interpunctella was obtained from H. Oberlander and maintained as described (Lynn, E. E. and Oberlander, H., (1983), J. Insect Physiology, 29, 591-96). A 300 ml stationary phase culture of P. interpunctella cells was centrifuged at 700×g for 10 mm at room temperature to pellet the cells. The supernatant was aspirated and the cellular pellet resuspended in 35 ml TMT (TM buffer with 0.1% Triton X-100). The suspension was homogenized with twenty up and down strokes of a Dounce homogenizer on ice. Homogenate was incubated on ice for 10 minutes and then centrifuged for 15 min at 900×g. The pellet was resuspenced in 15 ml TM buffer and centrifuged at 2,300×g. This pellet was extracted in TMK buffer (TM buffer with 800 mM KCl) by using a glass rod to crush the pellet until a gelatinous slurry was formed and incubated on ice for 15 minutes. The extract was centrifuged at 100,000×g in a swinging bucket rotor for 60 minutes. The supernatant, which constituted the nuclear extract, was desalted on a 10 DG desalting column (Bio-Rad, 732-2010) equilibrated with T-buffer. The total protein concentration in the nuclear extract was adjusted to 5 mg per ml with T-buffer containing 1 mM DTT. […]

Row | Compound | Plodia log(1/IC50)
1 | CCc1ccc(C(=O)NN(C(=O)c2cc(C)cc(C)c2)C(C)(C)C)c(F)c1 | 9.24
2 | CCc1c(C(=O)NN(C(=O)c2cc(C)cc(C)c2)C(C)(C)C)ccc2c1CCO2 | 8.85
